We go through three substances from patent publication US20220024982A1, “BICYCLIC PEPTIDE LIGANDS SPECIFIC FOR MT1-MMP” (BicycleTx Limited, priority 2018, published 2022).

Where two headings read alike, the source gives them in different places.

The target of assay [1] is T1, human MT1 MMP14 protein, hemopexin domain (Homo sapiens, UniProt P50281).
T1 construct: human MT1 MMP14 protein, hemopexin domain (obtained from Merck Millipore); purchased Merck Millipore
The assay can be described thus: SPR (Biacore) binding. Conditions: Biacore 3000, 25° C., biotinylated protein on streptavidin CM5 chip. On the procedure:
Biacore experiments were performed to determine KD (nM) values of monomeric peptides binding to human MT1 MMP14 protein, hemopexin domain (obtained from Merck Millipore).
The protein was extensively desalted to remove uncoupled biotin using spin columns into PBS.
For analysis of peptide binding, a Biacore 3000 instrument was used utilising a CM5 chip (GE Healthcare). Streptavidin was immobilized on the chip using standard amine-coupling chemistry at 25° C. with HBS-N (10 mM HEPES, 0.15 M NaCl, pH 7.4) as the running buffer. Briefly, the carboxymethyl dextran surface was activated with a 7 minute injection of a 1:1 ratio of 0.4 M 1-ethyl-3-(3-dimethylaminopropyl) carbodiimide hydrochloride (EDC)/0.1 M N-hydroxy succinimide (NHS) at a flow rate of 10 μl/min. For capture of streptavidin, the protein was diluted to 0.2 mg/ml in 10 mM sodium acetate (pH 4.5) and captured by injecting 120 μl of streptavidin onto the activated chip surface. Residual activated groups were blocked with a 7 minute injection of 1 M ethanolamine (pH 8.5) and biotinylated MT1 MMP14 captured to a level of 1,200-1,800 RU. Buffer was changed to PBS/0.05% Tween 20 and a dilution series of the peptides was prepared in this buffer with a final DMSO concentration of 0.5%. The top peptide concentration was 100 nM with 6 further 2-fold dilutions. The SPR analysis was run at 25° C. at a flow rate of 50 μl/min with 60 seconds association and dissociation between 400 and 1,200 seconds depending upon the individual peptide. Data were corrected for DMSO excluded volume effects. All data were double-referenced for blank injections and reference surface using standard processing procedures and data processing and kinetic fitting were performed using Scrubber software, version 2.0c (BioLogic Software). Data were fitted using a simple 1:1 binding model allowing for mass transport effects where appropriate.

Assay [2] concerns the target MT1-MMP Hemopexin domain (PEX) (Homo sapiens, UniProt P50281). The assay can be described thus: MT1-MMP fluorescence polarisation competition binding assay. Conditions: for Kd: read-out: Kd (nM ± 95% CI). The text has this: Due to their high affinities to the MT1-MMP Hemopexin domain (PEX), the fluoresceinated derivatives of 17-69-07 and 17-69-12 (denoted as 17-69-07-N040, 17-69-07-N041 and 17-69-12-N004) can be used for competition experiments (using FP for detection)
Here, a pre-formed complex of PEX with the fluorescent PEX-binding tracer is titrated with free, non-fluoresceinated bicyclic peptide. Since all 17-69-based peptides are expected to bind at the same site, the titrant will displace the fluorescent tracer from PEX. Dissociation of the complex can be measured quantitatively, and the Kd of the competitor (titrant) to the target protein determined. The advantage of the competition method is that the affinities of non-fluoresceinated bicyclic peptides can be determined accurately and rapidly.
Concentrations of tracer are usually at the Kd or below (here, 1 nM), and the binding protein (here, hemopexin of MT1-MMP) is at a 15-fold excess such that >90% of the tracer is bound. Subsequently, the non-fluorescent competitor bicyclic peptide (usually just the bicycle core sequence) is titrated, such that it displaces the fluorescent tracer from the target protein. The displacement of the tracer is measured and associated with a drop in fluorescence polarisation. The drop in fluorescence polarisation is proportional to the fraction of target protein bound with the non-fluorescent titrant, and thus is a measure of the affinity of titrant to target protein.
In certain experiments, collagen binding tracers (i.e. 17-88-N006 and 17-88-226-N002) were used in an analogous manner to the hemopexin binding tracers.
The raw data is fit to the analytical solution of the cubic equation that describes the equilibria between fluorescent tracer, titrant, and binding protein. The fit requires the value of the affinity of fluorescent tracer to the target protein, which can be determined separately by direct binding FP experiments (see previous section). The curve fitting was performed using Sigmaplot 12.0 and used an adapted version of the equation described by Zhi-Xin Wang (FEBS Letters 360 (1995) 111-114).

[3] abbreviates: Plate 1, read-out: Plate 1 Ki (FP-comp).
The mark [4] stands for this setting: tracer 17-88-226-N002 (collagen binding tracer).

What is called Kd is the concentration at which binding is half-saturated. What is called Ki is a dissociation constant, usually derived from enzyme kinetics or from competition with a known ligand. Turning to [Ac]LPP-(SEQ ID NO: 62) [BCY9965], the equilibrium dissociation constant (Kd) in assay [1] is 0.0776 µM. Besides, the Ki in assay [2] (setting [3]) was 0.076 µM.

Consider ALPP-(SEQ ID NO: 13)-A [17-120-09-T03], for which the dissociation constant (Kd) in assay [1] amounted to 0.0148 µM; in assay [2] (setting [4]) it was 32 ± 20.2 nM; in assay [2] (tracer 17-88-N006 (collagen binding tracer)) it was 35.6 nM. Also, the Ki stood at 0.078 µM in assay [2] (setting [3]) and 0.107 µM in assay [2] (Plate 2, read-out: Plate 2 Ki (FP-comp)).

As to “Ac-ALPP-(SEQ ID NO: 13) [Ac-(17-120-09-T03)]”, the figures for the Kd in assay [1] and in assay [2] (setting [4]) were 0.0151 µM and 18.6 ± 6.96 nM, respectively.
